Measurements reported in patent publication US20060040876A1, “Modulation of peroxisome proliferator-activated receptors” (priority 2004, published 2006).

Tested on: 3T3-L1 cells
Test: Glucose transport assay, uptake of 2-deoxy-D-[3H]glucose in differentiated 3T3-L1 cells
Type: cell-based, mouse
Conditions: insulin treatment alone (100 nM)
Procedure: The effect of one of the 15-keto prostaglandin-Δ^13-reductase inhibitors, i.e., 3,3′-methylene-bis(4-hydroxycoumarin), on insulin sensitivity was examined as follows. 3T3-L1 cells were induced to differentiate in the same manner as described above. A glucose transport assay was performed by measuring uptake of 2-deoxy-D-[3H]glucose as described by Fingar et al. See Fingar et al., Endocrinology 134:728-735. 1.67 μM of the inhibitor or 45 nM of a PPAR agonist, i.e., AVANDIA, was added to the cells. 10 μM cytochalasin-B was used to measure background glucose uptake levels. 100 nM of insulin was used to stimulate glucose uptake. Insulin treatment alone in differentiated 3T3-L1 cells increased glucose uptake by 20 folds. In the presence of this 15-keto prostaglandin-Δ^13-reductase inhibitor, glucose uptake was increased by 30 folds.

How did the “increase of glucose uptake” value turn out when Insulin [reference compound] was run?
Its value is 20 folds.
